This passage reports ED100 results from patent EP0221719A2, “Novel cephalosporin derivatives, processes for their preparation and pharmaceutical compositions containing them” (BIOGAL GYOGYSZERGYAR, priority 1985, dated 1987).

For the assay, the system named is Salmonella typhi murium and Proteus vulgaris. Description: In vivo effectivity in artificially infected mice (protection test). The note with it: sc, 72 h, read-out: dose achieving a fully complete therapeutic effect.

As for `CCN1CCN(C(=O)N[C@@H](C(=O)N[C@@H]2C(=O)N3C(C(=O)O)=C(CSc4nnnn4C)CS[C@H]23)c2ccc(O)cc2)C(=O)C1=O` [Cefoperazone, 7-[D-(-)-α-(4-ethyl-2,3-dioxo-1-piperazinecarboxamido)-α-(4-hydroxyphenyl)-acetamido]-3-[[(1-methyl-1H-tetranol-5-yl)thio]methyl]-ceph-3-em-4-carboxylic acid, reference compound], the ED100 amounted to 25 mg/kg.
